Test results as given in US9023847B2, “Azaheterocyclic compounds” (Merck Patent GmbH, priority 2009, dated 2015).
pIC50: −log10 of the molar value.

Chains of the proteins cited; added tags and fusions are not shown.
UniProt P23443, whole entry T412E: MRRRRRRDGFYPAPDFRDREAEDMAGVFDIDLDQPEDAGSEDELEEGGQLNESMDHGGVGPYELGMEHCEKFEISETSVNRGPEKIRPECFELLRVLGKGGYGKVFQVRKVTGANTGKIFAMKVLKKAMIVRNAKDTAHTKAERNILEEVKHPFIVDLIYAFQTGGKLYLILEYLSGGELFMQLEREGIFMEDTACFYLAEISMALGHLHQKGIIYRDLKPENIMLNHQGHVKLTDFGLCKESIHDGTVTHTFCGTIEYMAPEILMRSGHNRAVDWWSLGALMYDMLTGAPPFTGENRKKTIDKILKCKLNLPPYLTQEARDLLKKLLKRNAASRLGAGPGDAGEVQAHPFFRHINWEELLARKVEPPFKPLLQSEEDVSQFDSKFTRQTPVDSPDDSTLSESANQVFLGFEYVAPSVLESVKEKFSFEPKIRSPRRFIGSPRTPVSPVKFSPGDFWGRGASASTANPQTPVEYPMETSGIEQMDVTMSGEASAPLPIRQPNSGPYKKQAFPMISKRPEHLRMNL

Molecular target: P70S6K (T412E mutant, Millipore) (Homo sapiens, UniProt P23443, T412E)
Test: p70S6K enzyme assay
Conditions: read-out: IC50 (p70S6K); class symbol; 3 nM P70S6K, 24 μM ATP
Method: P70S6K inhibitor compounds are diluted and plated in 96 well plates. A reaction mixture including the following components is then added to the compound plate to initiate the enzyme reaction; P70S6K (3 nM, T412E mutant, Millipore) is mixed with 24 μM ATP in an assay buffer containing 100 mM Hepes (pH 7.5), 5 mM MgCl2, 1 mM DTT, 0.015% Brij and 1 μM of the substrate peptide FITC-AHA-AKRRRLSSLRA-OH (derived from the S6 ribosomal protein sequence, FITC=fluorescein isothiocyanate, AHA=6-aminohexanoic acid). The reaction is incubated for 90 min at 25° C., before the addition of 10 mM EDTA to stop the reaction. The proportion of substrate and product (phosphorylated) peptide is analysed on a Caliper Life Sciences Lab Chip 3000, using a pressure of −1.4 psi, and upstream and downstream voltages of −3000 and −700 respectively. Product peaks are resolved before substrate peaks on the resulting chromatograms.

| Structure (SMILES) | pIC50 |
| --- | --- |
| O=C(NCCNCc1cccc(Cl)c1)c1sccc1Nc1ccnc2[nH]ccc12 | > 7.00 |
| O=C(NCc1ccc(C(F)(F)F)c(Cl)c1)c1ccsc1Nc1ccnc2[nH]ccc12 | > 7.00 |
